Usually ΔTm stands for the change in melting temperature against a reference sample.

The chains behind the UniProt entries cited, without tags or fusion partners. Where a name states a change or a piece, a line headed by the entry shows the natural chain unless it says otherwise.
UniProt O75475: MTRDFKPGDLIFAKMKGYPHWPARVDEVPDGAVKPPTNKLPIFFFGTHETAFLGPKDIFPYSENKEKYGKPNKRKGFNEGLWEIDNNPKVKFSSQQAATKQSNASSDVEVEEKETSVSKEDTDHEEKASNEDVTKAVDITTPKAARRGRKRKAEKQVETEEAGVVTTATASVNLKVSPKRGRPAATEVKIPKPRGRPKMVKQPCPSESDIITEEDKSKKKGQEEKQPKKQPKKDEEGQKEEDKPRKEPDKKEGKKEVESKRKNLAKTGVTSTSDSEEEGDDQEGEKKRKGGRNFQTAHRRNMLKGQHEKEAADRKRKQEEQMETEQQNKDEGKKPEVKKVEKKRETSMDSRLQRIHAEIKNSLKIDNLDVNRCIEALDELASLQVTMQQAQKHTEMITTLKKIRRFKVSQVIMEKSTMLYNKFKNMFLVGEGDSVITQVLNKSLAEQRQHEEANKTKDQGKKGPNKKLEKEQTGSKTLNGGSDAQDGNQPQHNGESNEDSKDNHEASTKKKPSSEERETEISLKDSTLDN

Consider six compounds from ChEMBL document CHEMBL6083267, “Rational fragment-based design of compounds targeting the PWWP domain of the HRP family” (Eur J Med Chem, 2024).

For assay [1], the target named is T1, PC4 and SFRS1-interacting protein (Homo sapiens, UniProt O75475). The note with it: dose 250.0 µM.
Assay [2] concerns the target T1, PC4 and SFRS1-interacting protein. Particulars: dose 500.0 µM.

As to `CCS(=O)(=O)c1ccccc1NC(=O)COc1cccc(CC(=O)O)c1`, the ΔTm in assay [1] came out at 0.17 °C.

Turning to `NC(=O)CCN1CCCC1c1ccccc1` (stereo unspecified), the ΔTm in assay [2] is 1.32 °C.

In the case of `NCc1cncc(Br)c1`, the ΔTm in assay [2] worked out at 0.58 °C.

With `CCS(=O)(=O)c1ccc(C2CCCCN2)cc1` (stereo unspecified), the ΔTm in assay [2] was found to be 2.02 °C.

In the case of `Nc1ccc(CNCc2cncc(Br)c2)cc1`, the ΔTm in assay [1] worked out at 1.55 °C.

Turning to `CCS(=O)(=O)c1ccccc1NC(=O)CCl`, in assay [2], the ΔTm worked out at 0.52 °C.
